Assay results taken from article PMC12350680.

The chains behind the UniProt entries cited, without tags or fusion partners. Where a name states a change or a piece, a line headed by the entry shows the natural chain unless it says otherwise.
UniProt P02550: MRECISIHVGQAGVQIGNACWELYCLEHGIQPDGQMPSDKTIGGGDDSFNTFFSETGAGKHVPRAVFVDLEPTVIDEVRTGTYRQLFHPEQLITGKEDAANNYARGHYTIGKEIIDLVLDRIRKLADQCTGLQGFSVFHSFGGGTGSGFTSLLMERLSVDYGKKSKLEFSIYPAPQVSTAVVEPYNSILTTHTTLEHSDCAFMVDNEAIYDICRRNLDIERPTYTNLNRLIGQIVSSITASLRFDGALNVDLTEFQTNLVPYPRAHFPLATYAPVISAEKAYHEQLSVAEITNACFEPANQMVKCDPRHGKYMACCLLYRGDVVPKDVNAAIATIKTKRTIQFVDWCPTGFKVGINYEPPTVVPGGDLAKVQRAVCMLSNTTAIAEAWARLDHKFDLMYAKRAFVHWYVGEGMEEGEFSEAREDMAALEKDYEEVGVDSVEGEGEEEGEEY

target: microtubules pre-polymerized from porcine brain tubulin (porcine) (UniProt P02550); test: co-sedimentation; SSNA-1 with GMPCPP microtubules pre-polymerized from porcine brain tubulin, 20 µM each (1:1), BRB10, 4 min at room temperature, sedimented at 9777g and 25 °C; SDS-PAGE band intensities

Substance	concentration of SSNA-1 co-sedimented with microtubules (of 20 µM)	percent of SSNA-1 co-sedimented with microtubules
SSNA-1(1-96) (domain or fragment)	8.2 µM	41%
SSNA-1(1-100) (domain or fragment)	9.9 µM	50%
SSNA-1(Y15E/Y97E) (natural protein)		25%
SSNA-1(Y97E) (natural protein)	9.5 µM	48%

Now from value to substance:

concentration of SSNA-1 co-sedimented with microtubules (of 20 µM)	percent of SSNA-1 co-sedimented with microtubules	Substance
9.3 µM	46%	SSNA-1(1-97) (domain or fragment)
	30%	SSNA-1(18-105) (domain or fragment)
2.6 µM	13%	SSNA-1(19-105) (domain or fragment)
2.4 µM	12%	SSNA-1(R18E/Y97E) (natural protein)
